Results from patent publication US20090048190A1, “Antiviral activity and resolution of 2-hydroxymethyl-5(5-fluorocytosin-1-yl)-1,3-oxathiolane” (priority 1990, published 2009).
Several values for one entry are separate records, joined by “and”; a condition that tells them apart may be missing. Equal entries are not always repeated. Where two headings read alike, the source gives them in different places.

Conditions: 33.3 mg/kg; for CLT: I.V.; for Ka (first order absorption rate constant): P.O.
[1] = individual monkeys (RUh, RMi, RJd)

## Nc1nc(=O)n([C@@H]2CS[C@H](CO)O2)cc1F (racemic) [(±)-FTC, (±)-β-D,L-2-hydroxymethyl-5-(5-fluorocytosin-1-yl)-1,3-oxathiolane]
[1]
  CLT: 1.26 L/h/kg and 1.48 L/h/kg and 1.74 L/h/kg
  Ka (first order absorption rate constant): 0.48 h−^1 and 0.43 h−^1 and 0.31 h−^1
mean
  CLT: 1.49 L/h/kg
  Ka (first order absorption rate constant): 0.41 h−^1
